According to ChEMBL document CHEMBL3297661, “1-Substituted-5-[(3,5-dinitrobenzyl)sulfanyl]-1H-tetrazoles and their isosteric analogs: A new class of selective antitubercular agents active against drug-susceptible and multidrug-resistant mycobacteria” (Eur J Med Chem, 2014):

Key:
HepG2 [1] = assay: Cytotoxicity against human HepG2 cells assessed as reduction in cell viability after 48 hrs by MTT assay; type: cell-based
[2] = Cytotoxicity against MDCK2 cells assessed as cell viability at 30 uM after 48 hrs by MTT assay; type: cell-based, Canis lupus familiaris; details: dog, mdck-ii
HepG2 [3] = assay: Cytotoxicity against human HepG2 cells assessed as cell viability at 30 uM after 48 hrs by MTT assay; type: cell-based; details: hepg2, 48 h
[4] = Cytotoxicity against human HuH7 cells assessed as cell viability at 30 uM after 48 hrs by MTT assay; type: cell-based; details: huh-7, 48 h
HeLa [5] = assay: Cytotoxicity against human HeLa cells assessed as reduction in cell viability after 48 hrs by MTT assay; type: cell-based
HeLa [6] = assay: Cytotoxicity against human HeLa cells assessed as cell viability at 30 uM after 48 hrs by MTT assay; type: cell-based
[7] = Cytotoxicity against human HuH7 cells assessed as reduction in cell viability after 48 hrs by MTT assay; type: cell-based; details: huh-7
[8] = Cytotoxicity against MDCK2 cells assessed as reduction in cell viability after 48 hrs by MTT assay; type: cell-based, Canis lupus familiaris; details: mdck-ii

Compound	IC50 (HepG2 [1]) [µM]	Activity [2] [%]	Activity (HepG2 [3]) [%]	Activity [4] [%]	IC50 (HeLa [5]) [µM]	Activity (HeLa [6]) [%]	IC50 [7] [µM]	IC50 [8] [µM]
O=[N+]([O-])c1ccc(-n2nnnc2SCc2cc([N+](=O)[O-])cc([N+](=O)[O-])c2)cc1	> 30	116	100	90	> 30	65	> 30	> 30
O=[N+]([O-])c1cccc(-n2nnnc2SCc2cc([N+](=O)[O-])cc([N+](=O)[O-])c2)c1	> 30	95	84	95	> 30	62	> 30	> 30
